This is an account of results in ChEMBL document CHEMBL3994613, “Diaryltriazenes as antibacterial agents against methicillin resistant Staphylococcus aureus (MRSA) and Mycobacterium smegmatis” (Eur J Med Chem, 2017).

The test has as its system Staphylococcus aureus. As to conditions: USA300.

By MIC is commonly meant the lowest concentration found to suppress growth. Read a high MIC as a need for much substance.

In the case of GENTAMICIN, the MIC fell in the range of 0.5 to 8 µg/mL.
